HCMV UL50-53 inh: cytomegalovirus nuclear egress complex inhibition; AID 1918969; inhibition, % (concentration not given with the values); actives 0.15% (n = 190,000); HTRF UL50-UL53 interaction, normalized percent inhibition; in the data active = inhibition above about 27%, passing the limit was not always enough
GIV Gai3 FP: GIV-Galpha-i interaction inhibition. 210,000 compounds, 0.42% hits. percent of control (FP), % (no concentration beside the values). Galpha-i3/FITC-GIV peptide fluorescence polarization, 90 min; active compounds read low; scaled: aluminum fluoride 0%, vehicle 100%. AID 1224905. P08753;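 active = replicate mean at 85% of control or lower, very high polarization wells dropped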;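 note: wells of about 15 µL received 100 nL stock; the first replicate is given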
Numbers without * were called inactive; · = not tested or not shown. Most compounds without a hit are left out; they make up all but 0.46% or so of the library.

SMILES	HCMV UL50-53 inh	GIV Gai3 FP
COC(=O)c1ccc(OC(=O)CCc2nc3cc(S(=O)(=O)N4CCOCC4)ccc3n2C)cc1	-11.7	·
CCSC1=N/C(=C\c2ccc(N(C)C)cc2)C(=O)S1	-4.3	27.7*
CCSC1=N/C(=C\c2ccc(C(=O)O)cc2)C(=O)S1	·	106.0
CCOc1ccc(N2C(=O)Nc3ccccc3C2(O)C(=O)N2CCCC2)cc1 (configuration not stated)	-5.7	109.6
Cc1ccc(Nc2c(-c3ccccc3)c(=O)c2=O)cc1F	-32.9	107.1
CCCCOC(=O)c1c(C)oc2c1cc(NS(=O)(=O)c1ccc3c4c(cccc14)C(=O)N3)c1ccccc12	·	111.3
N#C/C(=C\c1ccc(N2CCCCC2)o1)C(N)=O	-216.8	196.5
CCOC(=O)/C(C#N)=C/c1ccc(N2CCCCC2)o1	-148.1	-73.7*
C[n+]1cccc2ccc(O)cc21	-53.0	-7.5*
Oc1ccc2ccccc2c1	-49.2	·
CCc1ccc(Nc2nc(Nc3ccc(OC)c(OC)c3)nc(N3CCOCC3)n2)cc1	-34.2	106.1
CCOC(=O)c1c(NC(=O)CSc2nnc3cc(C)c4cccc(OC)c4n23)sc(C)c1C	-2.9	99.5
COc1cc(OC)cc(-c2noc(CSc3nc4ccsc4c(=O)[nH]3)n2)c1	-33.0	102.2
O=c1oc2ccccc2cc1-c1nnc(-c2cccc(Cl)c2)o1	5.4	101.3
CCCCCCc1cc2cc(-c3nnc(-c4cccc(Cl)c4)o3)c(=O)oc2cc1O	-49.0	7.6*
Fc1ccc(F)c(-c2nc(-c3ccc4c(c3)ncn4CCN3CCCC3)no2)c1	·	111.8
Cc1cc(F)ccc1NS(=O)(=O)c1cc(-c2cc(C(F)(F)F)on2)sc1C	·	108.8
N#CC(C#N)C(C#N)(C#N)C1CCCC1=O (configuration not stated)	-4.2	68.3*
COc1cc(/C=C(\C#N)C(=O)C(C)(C)C)ccc1O	-73.3	·
COc1cc(/C=C(\C#N)C(=O)c2ccc(O)c(O)c2)cc(I)c1O	-121.5	-30.6*
O=C(O)[C@H](Cc1ccc(O)cc1)N1C(=O)c2ccccc2C1=O	-15.1	104.4
COc1ccc(C2CC(=O)C3=C(C2)Nc2ccccc2NC3c2cc([N+](=O)[O-])ccc2Cl)cc1 (configuration not stated)	41.0*	105.6
COc1ccc(C2CC(=O)C3=C(C2)Nc2ccccc2NC3c2ccccc2Br)cc1 (configuration not stated)	-13.9	103.6
O=S(=O)(Nc1cc2c3c(oc2c2ccccc12)CCCC3)c1ccc(Cl)cc1	·	107.3
Cc1nc(-n2[nH]c(C)c(Cc3ccc(Cl)cc3)c2=O)sc1C(=O)N1CCC(C)CC1	-28.0	100.7
COc1cccc(/C(O)=C/c2nc3ccc(C(=O)N4CCN(c5ccccn5)CC4)cc3[nH]c2=O)c1	-43.5	54.9*
COc1cccc(/C(O)=C/c2nc3ccc(C(=O)N4CCN(C5CCCCC5)CC4)cc3[nH]c2=O)c1	-74.1	109.9
COc1ccc(OCC(=O)N2N=C3/C(=C/c4ccco4)CCCC3C2c2ccco2)cc1 (configuration not stated)	-2.0	·
CN(C)c1ccc(/C=C(\C#N)C(N)=C(C#N)C#N)cc1	·	-23.8*
CN(C)c1ccc(/C=C(/C#N)c2ccc(C#N)cc2)cc1	-10.3	11.1*
CN(C)c1ccc(/C=C(\C#N)C(N)=O)cc1	-117.9	·
CN(C)c1ccc(/C=C(\C#N)c2nc3ccccc3c(=O)[nH]2)cc1	-42.9	254.1
Clc1cccc(Cl)c1Cn1nnc(-c2ccccc2)n1	-14.7	105.2
O=C(Nc1ccccc1F)c1cc(-c2ccncc2)n[nH]1	-6.1	105.7
CC(=O)Nc1c2c3c(cccc3n(C)c1=O)C(=O)c1ccccc1-2	·	93.6
COCCCNc1c2c3c(cccc3n(C)c1=O)C(=O)c1ccccc1-2	·	-62.4*
O=C1c2cccc3c(N4CCOCC4)ccc(c23)C(=O)N1c1ccccc1	-90.6	94.0
Cc1n[nH]c(C)c1N1C(=O)c2cccc3c(N4CCCCC4)ccc(c23)C1=O	-115.7	-6.8*
O=C1Nc2ccccc2/C1=C/c1ccccc1	·	109.2
O=C1/C(=C/c2ccccc2)Nc2ccccc21	-72.5	-102.2*
O=C(NCC1CCCO1)c1cc2c(s1)-c1ccccc1OC2 (configuration not stated)	·	111.0
O=C(NCC1CCCO1)c1cc(-c2ccccc2)c(N2CCCCC2)s1 (configuration not stated)	35.4*	101.7
CCC(C)n1c(NC(=O)c2ccccc2)c(C#N)c2nc3ccccc3nc21 (configuration not stated)	71.9*	·
CCCCn1c(NC(=O)c2ccccc2)c(C#N)c2nc3ccccc3nc21	72.6	·
CCOC(=O)N1CCc2c(sc3c2c(=O)n(CCc2ccccc2)c(=O)n3C)C1	7.2	109.0
CCc1ccc(S(=O)(=O)c2nnn3c2nc(NC(C)C)c2sccc23)cc1	·	102.2
CC(C)Nc1nc2c(S(=O)(=O)c3ccccc3)nnn2c2ccsc12	37.0*	100.5
COc1ccc(NC(=NCc2ccncc2)NC(=O)c2cccc(N(C)C)c2)cc1OC	-40.3	101.8
COc1ccc(Nc2nc(SC)nc(-c3ccccc3)c2C#N)cc1OC	-13.3	99.5
CSc1nc(Nc2cccc(C)c2)c(C#N)c(-c2ccccc2)n1	48.4*	102.4
Next part:
SMILES	HCMV UL50-53 inh	GIV Gai3 FP
CCOc1ccc(C(=O)c2cccs2)cc1	-9.1	98.6
CCOc1ccc(C(=O)c2[nH]c(=O)c3ccccc3c2O)cc1	61.2*	88.6
C=C(C)Cn1c(SCC(=O)OCC)nc2c(c1=O)C1(CCCCC1)Cc1ccccc1-2	-6.8	103.4
O=C(NCCc1ccccc1)c1ccc2c(=O)n(CCc3c[nH]c4ccccc34)c(=S)[nH]c2c1	·	107.9
O=C1/C(=C/c2cn(-c3ccccc3)nc2-c2ccc(Cl)cc2)SC(=S)N1C1CCS(=O)(=O)C1 (configuration not stated)	-6.9	105.0
O=C1/C(=C/C2=Cc3ccccc3OC2)SC(=S)N1C1CCS(=O)(=O)C1 (configuration not stated)	-48.0	-34.6*
Cc1cccc(NC2=NCC(=O)N2Cc2ccccc2)c1	59.4*	102.5
O=C1CN=C(Nc2ccccc2Cl)N1Cc1ccccc1	15.1	101.9
Clc1cc(Cl)c(NN=C2CCCC2)c(Cl)c1	6.6	·
O=C1CCNc2ccc(-c3ccccc3)cc21	-58.4	14.2*
O=C1CCNc2cc3ccccc3cc21	-73.4	118.7
CCOc1ccccc1C1C(C#N)=C(N)SC(N)=C1C#N	-10.8	-78.3*
CCc1ccc(C2C(C#N)=C(N)SC(N)=C2C#N)cc1	-13.1	·
Cc1nnc(N2C(=O)C(O)=C(C(=O)c3cccs3)C2c2ccccc2F)s1 (configuration not stated)	-60.6	-9.4*
O=C(C1=C(O)C(=O)N(c2ccccn2)C1c1ccccc1)c1cccs1 (configuration not stated)	-33.8	·
COc1cc(C2C=C(c3cccs3)Nc3ncnn32)cc(OC)c1OC (configuration not stated)	·	-0.1*
C1=C(c2ccccc2)Nc2ncnn2C1c1ccccc1 (configuration not stated)	-15.7	·
COc1ccc(N2CCN(/C=C(\C#N)c3nc4ccccc4s3)CC2)cc1	5.3	-61.0*
COc1ccc(/C(O)=C(/C#N)c2nc3ccccc3s2)cc1	-10.1	·
CCCCc1cc(=O)oc2c(CN(C)C)c(O)ccc12	-29.6	105.6
CC[C@@]1(O)C(=O)OCc2c1cc1n(c2=O)Cc2cc3c(CN(C)C)c(O)ccc3nc2-1	-68.9	-6.9*

Structures shown so far with fluorine:
SMILES	HCMV UL50-53 inh	GIV Gai3 FP
Cc1ccc(Nc2c(-c3ccccc3)c(=O)c2=O)cc1F	-32.9	107.1
Fc1ccc(F)c(-c2nc(-c3ccc4c(c3)ncn4CCN3CCCC3)no2)c1	·	111.8
Cc1cc(F)ccc1NS(=O)(=O)c1cc(-c2cc(C(F)(F)F)on2)sc1C	·	108.8
O=C(Nc1ccccc1F)c1cc(-c2ccncc2)n[nH]1	-6.1	105.7
Cc1nnc(N2C(=O)C(O)=C(C(=O)c3cccs3)C2c2ccccc2F)s1 (configuration not stated)	-60.6	-9.4*

Full records, quoted from the list. Order of screens: HCMV UL50-53 inh | GIV Gai3 FP
`CCCCCCc1cc2cc(-c3nnc(-c4cccc(Cl)c4)o3)c(=O)oc2cc1O` is entered as -49.0 | 7.6*
`CC(=O)Nc1c2c3c(cccc3n(C)c1=O)C(=O)c1ccccc1-2` is entered as · | 93.6
